# From PubChem BioAssay
# This is a sample that favours compounds with a hit; in the whole collection about 1.9% have one here.
# ARNT TACC3 PPI: disruptors of ARNT/TACC3 protein interaction, primary screen, biochemical, AlphaScreen, single concentration; actives 0.66% (n = 390,000); AlphaScreen His-ARNT PAS-B/GST-TACC3 binding, luminescence; TACC3 fragment carries E629A point mutation; inhibition, % at 9.99 µM; Transforming acidic coiled-coil-containing protein 3 (Homo sapiens), Q9Y6A5;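 active means mean inhibition of replicates at least 50% and at least half of replicates each reaching 50%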;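 further: 0% = complete ARNT plus TACC3 wells and 100% = ARNT alone without TACC3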
# PDI turbidity: inhibitors of human PDI, primary screen, biochemical, turbidity, single point, plate reader; Protein disulfide-isomerase (Homo sapiens), P07237; PDI insulin aggregation turbidity, A650, 90 min; inhibition, % at 10 µM; actives 0.052% (n = 350,000); AID 588391, 2011;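 active means mean inhibition across replicates of 30% or more, whatever share of single replicates reach that level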
# FGF22 binding: binders of human FGF22 protein, primary screen, FGF22 synaptogenesis inhibitor project, biophysical, thermal shift, single point | AID 651658, 2012 | Fibroblast growth factor 22 (Homo sapiens), Q9HCT0 | recombinant FGF22 thermal shift, SYPRO orange fluorescence; percent of sucrose octasulfate shift, DMSO zero | actives 1.5% (n = 340,000) | activity (Tm shift, normalised), % at 9.99 µM;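 active means mean Tm shift, scaled 0 neutral to 100 positive control, at about 1.3% or above, every replicate too, limit read from the data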
# Yeast UUG start: yeast start codon fidelity modulation. S. cerevisiae UUG-firefly luciferase reporter, luminescence/redox ratio. activity score, % at 18.7 µM. 0.13% of 350,000 active;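 active = replicate mean at a twofold rise or more, about +100% in these data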;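 also: firefly luciferase made from a UUG start codon reports start codon fidelity; reporter light over untreated wells divided by growth signal over untreated wells; some hits fall short of that in this replicate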
# PglD DTNB: C. jejuni PglD acetyltransferase inhibitors, primary screen, biochemical, DTNB colorimetric, single point. purified PglD enzyme, DTNB colorimetric CoA detection. inhibition, % at 12.5 µM. actives 0.098% (n = 360,000). AID 602405, 2012; in the data active means inhibition above about 16%, passing the limit was not always enough
# ERp5 block: inhibitors of ERp5-driven insulin aggregation, primary screen, biochemical, turbidity, absorbance 650 nm, single point; Protein disulfide-isomerase A6 (Homo sapiens), Q15084; 90 min; inhibition, % at 9.99 µM; actives 0.05% (n = 350,000); AID 651711, 2012;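 active means mean replicate inhibition above about 25%, with every replicate also reaching it, limit read from the data, passing the limit was not always enough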
# Active calls of the source: *; x = not tested or not shown.
mol | PglD DTNB | ERp5 block | ARNT TACC3 PPI | PDI turbidity | Yeast UUG start | FGF22 binding
C[C@@H]1CN([C@@H](C)CO)C(=O)Cc2cc(NS(C)(=O)=O)ccc2O[C@@H]1CN(C)Cc1ccc(-c2ccccc2)cc1 | -4 | -1 | 5 | x | x | 0
Cc1ncc([N+](=O)[O-])n1CCOC(=O)C12CC3CC(CC(C3)C1)C2 | 2 | -2 | -6 | 3 | -9 | 0
Cc1ncc([N+](=O)[O-])n1CCOC(=O)Nc1ccc([N+](=O)[O-])cc1 | x | -1 | x | 0 | x | 43*
OC(CCN1CCC2(CC1)OCCO2)C(F)(F)F (centres undefined) | x | 0 | -2 | -3 | x | 43*
O=C(C[C@@H]1C=C[C@@H](NC(=O)C2CCC2)[C@H](CO)O1)NCc1ccccc1Cl | 3 | -8 | x | x | -10 | 0
C[C@@H]1CN([C@@H](C)CO)C(=O)Cc2cc(NC(=O)Nc3ccc(C(F)(F)F)cc3)ccc2O[C@@H]1CN(C)Cc1ccc(Oc2ccccc2)cc1 | 5 | -7 | x | x | 42 | 1
O=C(CSc1ncn[nH]1)NN(c1ccccc1)c1ccccc1 | x | 2 | -3 | 6 | x | 44*
O=C(CSc1nnnn1-c1ccccc1)N1N=CCC1c1ccccc1 (centres undefined) | x | x | 3 | 5 | x | x

mol | PglD DTNB | ERp5 block | ARNT TACC3 PPI | PDI turbidity | Yeast UUG start | FGF22 binding
Cc1ccc(SCC(=O)N2N=CCC2c2ccccc2)cc1 (centres undefined) | x | -1 | -6 | -4 | x | 44*
O=c1c([N+](=O)[O-])c(NCCN2CCCCCC2)c2ccccc2n1-c1ccccc1 | x | 3 | x | 8 | x | 43*
[O-]/C(=C(\C(=S)NCc1ccccc1)[n+]1ccccc1)c1ccc(Cl)s1 | -1 | 1 | x | 1 | -25 | 43*
c1ccc(N=C2SCCCS2)cc1 | x | 1 | x | 1 | -2 | 43*
Clc1ccc(N=C2SCCS2)cc1 | x | 4 | -1 | 5 | x | 0
O=C(O)CCCNC(=O)/C=C/c1ccco1 | x | 6 | -7 | 11 | x | 44*
CC(=O)N[C@H]1CC[C@@H](CC(=O)NCc2ccc(Cl)cc2)O[C@@H]1CO | 10 | 5 | -11 | x | -12 | 0
COc1cc2c3nnc(-c4ccccc4)c-3cn(Cc3ccc(F)cc3)c2cc1OC | x | 3 | 15 | -24 | x | 44*

mol | PglD DTNB | ERp5 block | ARNT TACC3 PPI | PDI turbidity | Yeast UUG start | FGF22 binding
Cc1ccc(S(=O)(=O)NC(CC(C)C)C(=O)Oc2ccc3c4c(c(=O)oc3c2)CCC4)cc1 (centres undefined) | -3 | -2 | -2 | -6 | -9 | 0
CC(C)CC(C(=O)Oc1ccc2c3c(c(=O)oc2c1)CCC3)N1C(=O)c2ccccc2C1=O (centres undefined) | 0 | x | 47* | 2 | 5 | x
Cc1ccnc(NC(=O)c2ccc(Cl)c(NC(=O)C(C)Oc3ccccc3)c2)c1 (centres undefined) | x | -1 | 5 | 3 | x | 43*
CN(C)C1=C(Cl)C(=O)N(c2ccc(Cl)c(Cl)c2)C1=O | 6 | -1 | -9 | 1 | -22 | 0
CN(C)/C=C1\C(=O)N(c2ccc(Cl)c(Cl)c2)CS1(=O)=O | x | 2 | x | 0 | x | 43*
Cc1[nH]c(=O)[nH]c(=O)c1/C=N/NC(=O)[C@@H](NC(=O)OC(C)(C)C)C(C)C | -7 | x | 47* | 1 | 3 | x
Cc1[nH]c(=O)[nH]c(=O)c1/C=N/NC(=O)CCNC(=O)OC(C)(C)C | 1 | 0 | 12 | 2 | -17 | 0
Cc1[nH]c(=O)[nH]c(=O)c1/C=N/NC(=O)CCCCCNC(=O)OC(C)(C)C | x | 9 | 20 | -4 | x | 0

mol | PglD DTNB | ERp5 block | ARNT TACC3 PPI | PDI turbidity | Yeast UUG start | FGF22 binding
Cc1[nH]c(=O)[nH]c(=O)c1/C=N/NC(=O)[C@H](C)N | -9 | -1 | 47* | 16 | -1 | 0
CCCCCC1(C)NC(=S)N(c2ccccc2)N1 (centres undefined) | x | 0 | -2 | 1 | x | 44*
COc1cc(C(=O)NCC(=O)OCn2nnc3ccccc3c2=O)cc(OC)c1OC | x | 2 | -21 | 0 | x | 0
COc1cc(CC(=O)OCn2nnc3ccccc3c2=O)cc(OC)c1OC | x | -4 | -5 | 23 | x | 44*
O=C(CSc1nc(C2CCCCC2)nc2ccccc12)NCc1ccc2c(c1)OCO2 | x | -4 | -6 | -5 | x | 44*
O=C(CSc1ccc2ccccc2n1)NCc1ccc2c(c1)OCO2 | x | -11 | -10 | -1 | x | 43*
C[C@@H]1CN([C@H](C)CO)C(=O)c2cc(NS(=O)(=O)c3cn(C)cn3)ccc2O[C@@H]1CN(C)C(=O)Nc1ccc2c(c1)OCO2 | -4 | 5 | 5 | x | -3 | 0
C/C(=N\Nc1nnc(C)c(=O)[nH]1)C(=O)O | -2 | x | 66* | 5 | -21 | x

mol | PglD DTNB | ERp5 block | ARNT TACC3 PPI | PDI turbidity | Yeast UUG start | FGF22 binding
CC(/C=N/Nc1nnc(C)c(=O)[nH]1)=C\c1ccccc1 | -1 | -3 | 33 | -1 | -9 | 0
Cc1n(N)c2ccccc2[n+]1CC(=O)c1ccccc1 | x | -8 | 3 | 23 | x | 43*
CCCNC(=O)N(C)C[C@H]1Oc2ncc(C#CC3CC3)cc2C(=O)N([C@@H](C)CO)C[C@H]1C | -3 | -4 | -2 | x | -3 | 0
COCC(=O)Nc1ccc2c(c1)C(=O)N(C)C[C@@H](OC)[C@H](C)CN(CCC(F)(F)F)[C@H](C)CO2 | -2 | 4 | -3 | x | 14 | 0
Cc1noc(C)c1NC(=O)Nc1ccc2c(c1)C(=O)N([C@H](C)CO)C[C@@H](C)[C@@H](CN(C)C(=O)NC1CCCCC1)O2 | -3 | -1 | -5 | x | -18 | 0
COc1ccc(-c2nc(SCC(=O)Nc3cccc(S(N)(=O)=O)c3)n[nH]2)cc1 | -1 | -5 | -2 | 5 | -11 | 1.8*
N#Cc1c(C#N)c(O)c2ccccc2c1O | -4 | -8 | 9 | -7 | 8 | 0
N=C1CCC(=N)c2c1c(O)c1ccccc1c2O | x | x | 51* | -1 | x | x

# Structures listed so far that have a COOH group:
mol | PglD DTNB | ERp5 block | ARNT TACC3 PPI | PDI turbidity | Yeast UUG start | FGF22 binding
O=C(O)CCCNC(=O)/C=C/c1ccco1 | x | 6 | -7 | 11 | x | 44*
C/C(=N\Nc1nnc(C)c(=O)[nH]1)C(=O)O | -2 | x | 66* | 5 | -21 | x

# Continued.
mol | PglD DTNB | ERp5 block | ARNT TACC3 PPI | PDI turbidity | Yeast UUG start | FGF22 binding
O=C1/C(=C/c2cccnc2)Oc2cc(OS(=O)(=O)c3ccc(F)cc3)ccc21 | -2 | 8 | 60* | -7 | -25 | 0
Cc1ccc(S(=O)(=O)Oc2ccc3c(c2)O/C(=C\c2cccnc2)C3=O)cc1 | -2 | x | -8 | -4 | -11 | x
CCc1c(C)nc(SCC(=O)Nc2nc(-c3ccc(OC)cc3)cs2)[nH]c1=O | x | 4 | 12 | -6 | x | 43*
CCc1c(C)nc(SCC(=O)NNC(=O)Cc2ccc(OC)cc2)[nH]c1=O | 1 | -10 | 4 | 0 | -19 | 0
CC(=O)NC(C)c1nc2ccccc2n1CC(=O)N1C(C)CCCC1C (centres undefined) | x | -2 | 6 | 2 | x | 44*

# In the list so far, these have a nitro group on carbon.
mol | PglD DTNB | ERp5 block | ARNT TACC3 PPI | PDI turbidity | Yeast UUG start | FGF22 binding
Cc1ncc([N+](=O)[O-])n1CCOC(=O)C12CC3CC(CC(C3)C1)C2 | 2 | -2 | -6 | 3 | -9 | 0
Cc1ncc([N+](=O)[O-])n1CCOC(=O)Nc1ccc([N+](=O)[O-])cc1 | x | -1 | x | 0 | x | 43*
O=c1c([N+](=O)[O-])c(NCCN2CCCCCC2)c2ccccc2n1-c1ccccc1 | x | 3 | x | 8 | x | 43*
